Reference: patent US11191762B2, “Alkyl substituted triazole compounds as agonists of the APJ Receptor” (priority 2016, dated 2021)

Protein sequences, listed by entry. Tags and fused reporters are not part of them. Lines headed by an entry give the natural chain unless they say otherwise; changes in a name come on top.
UniProt P35414: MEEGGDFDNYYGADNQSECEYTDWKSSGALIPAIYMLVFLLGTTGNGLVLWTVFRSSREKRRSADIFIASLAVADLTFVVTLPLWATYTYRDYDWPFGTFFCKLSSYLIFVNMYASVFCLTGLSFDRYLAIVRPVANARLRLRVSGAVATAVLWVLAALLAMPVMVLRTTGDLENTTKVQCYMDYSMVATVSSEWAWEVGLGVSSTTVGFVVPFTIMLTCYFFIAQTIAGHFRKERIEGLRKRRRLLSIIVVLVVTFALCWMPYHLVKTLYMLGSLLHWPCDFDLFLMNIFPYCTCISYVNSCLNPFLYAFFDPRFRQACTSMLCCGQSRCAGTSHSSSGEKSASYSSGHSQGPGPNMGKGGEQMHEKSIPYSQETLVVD

Key:
APJ receptor [1] = target: T1, APJ receptor (Homo sapiens (Human), UniProt P35414); experiment: biochemical
Description: The human APJ receptor was cloned by polymerase chain reaction and the gene encoding the receptor was subcloned in pFLAG-CMV™-3 expression vector (Sigma, Saint Louis, Mo. USA) in-house at Amgen. A GTPγS binding assay was performed on membranes prepared from CHO cells stably expressing human APJ receptor. The optimum experimental conditions for the concentrations of GDP, MgCl2, and NaCl in the assay buffer were initially determined. The assay was performed in 9 μL assay buffer [20 mM HEPES, pH 7.5, 5 mM MgCl2, 100 mM NaCl and 0.1% (w/v) BSA], 1 μL of diluted test compound (starting with 0.75 mM, 2-fold serial dilution with DMSO, total 22 points), 10 μL of 18 µM GDP (final concentration of 3 μM GDP), 20 μL of […] membrane protein expressing human APJ receptor captured with WGA PS beads (final concentration of 5 μg per well), and 20 μL of 0.3 nM [^35S]GTPγS (final concentration is 0.1 nM [^35S]GTPγS)(Perkin Elmer Life and Analytical Sciences, Waltham USA).

APJ receptor [2] = target: T1, APJ receptor; conditions: cited from earlier work

Row | Compound | EC50 (APJ receptor [1]) [nM] | in vitro affinity to the APJ receptor relative to apelin-36 (APJ receptor [2]) [fold]
1 | CCc1nnc(NS(=O)(=O)[C@@H](C)[C@H](OC)c2ncc(Cl)cn2)n1-c1c(OC)cccc1OC [Example 66.0, (1R,2S)-1-(5-chloropyrimidin-2-yl)-N-(4-(2,6-dimethoxyphenyl)-5-ethyl-4H-1,2,4-triazol-3-yl)-1-methoxypropane-2-sulfonamide] | 2.3 | –
2 | Apelin-13 | – | ~3.5
